This is an account of results in article PMC6149722, “Comparison of the Binding of Reversible Inhibitors to Human Butyrylcholinesterase and Acetylcholinesterase: A Crystallographic, Kinetic and Calorimetric Study” (Molecules : A Journal of Synthetic Chemistry and Natural …, 2017).

Sequences of proteins named here, by UniProt entry; tags and fusion partners are left off. Residues count along the entry.
UniProt P22303, 32-574 limits assumed: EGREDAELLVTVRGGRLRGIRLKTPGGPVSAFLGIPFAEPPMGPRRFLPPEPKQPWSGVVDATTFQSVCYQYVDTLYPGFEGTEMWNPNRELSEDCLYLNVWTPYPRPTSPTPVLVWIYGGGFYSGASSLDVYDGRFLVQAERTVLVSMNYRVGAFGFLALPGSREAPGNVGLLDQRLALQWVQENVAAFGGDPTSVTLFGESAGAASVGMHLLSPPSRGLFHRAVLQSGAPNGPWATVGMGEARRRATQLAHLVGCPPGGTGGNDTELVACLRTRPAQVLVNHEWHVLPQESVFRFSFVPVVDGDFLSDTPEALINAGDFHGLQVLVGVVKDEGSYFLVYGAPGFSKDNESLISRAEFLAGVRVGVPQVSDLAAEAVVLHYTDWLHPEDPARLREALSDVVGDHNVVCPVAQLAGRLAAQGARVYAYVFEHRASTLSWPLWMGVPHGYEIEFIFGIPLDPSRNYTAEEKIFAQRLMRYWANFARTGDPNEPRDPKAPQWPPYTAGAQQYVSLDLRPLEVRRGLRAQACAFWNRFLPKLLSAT

The assay addresses hAChE (Homo sapiens, UniProt P22303). In words: Isothermal titration calorimetry (ITC) with hAChE. Type of assay: binding. Conditions: 25 °C, pH 8.0. Background: Isothermal titration calorimetry measures the heat released or taken up as one component is titrated into another.

Take `CC[N+](C)(CC)CCC[n+]1c(-c2ccccc2)c2cc(N)ccc2c2ccc(N)cc21`: the “ΔG (±SD), Gibbs free energy of binding” value is -7.07 ± 0.072 kcal/mol.
